PMC7413384

Molecular target: REGγ (UniProt P61289)
Test: co-immunoprecipitation, western blot
Settings: reference: wild type; sites S226,S227,S228,S230

## NIP30 (from UniProt Q9GZU8) S226–230A (4A)
  binding against the reference: lost
